Source: article PMC7179958, “Prediction of Clinical Transporter‐Mediated Drug–Drug Interactions via Comeasurement of Pitavastatin and Eltrombopag in Human Hepatocyte Models” (CPT: Pharmacometrics & Systems Pharmacology, 2020)

Tested on: human hepatocytes
Test: Uptake of pitavastatin and eltrombopag in cryopreserved human hepatocytes (oil spin method), comeasurement, micro‐rate constant mechanistic model
Assay type: in vitro ADME
Experimental: Human hepatocytes were obtained from BioIVT (Brussels, Belgium; lot number: LYB; 10 donor LiverPool (8 Caucasians, 1 African American, and 1 Hispanic) and thawed according to supplier guidelines in Leibovitz L15 medium. Hepatocytes were kept on ice prior to use and were used within 3 hours of defrosting.
Hepatocytes (viability 84–87%) were preincubated in Leibovitz L15 medium at 1.5 × 10^6 cells for 15 minutes at 37 °C with either 0.1% DMSO or 45 nmol/mL eltrombopag. Incubations were started by the addition of pitavastatin (0.3–100 nmol/mL, 1 × 10^6 cells, 0.35% DMSO, 30 nmol/mL eltrombopag final), and 100 µL samples taken at 0.25–30 minutes. Cells were separated using an oil spin method similar to the literature. ^11 , ^17 After separation, the tubes were frozen on dry ice and the bottom layer was cut off. Pitavastatin and eltrombopag were extracted in a stop solution prior to ultra‐performance liquid chromatography–high‐resolution mass spectrometry analysis (see the Supplemental Material for full experimental and sample extraction methods).
The bottom layer concentrations of pitavastatin and eltrombopag were converted to a cellular concentration using a cellular volume (V cell) of 3 µL/1 × 10^6 human hepatocytes: ^18 (1) cellnmol/mL=Bottom layer×15.3μL/Vcell/100 where V cell /1 × 10^5 cells was 0.3 µL, and the volume of the bottom layer of cesium chloride was 15 µL. A dilution factor of 100 was used to scale from pmol/mL/1 × 10^5 cells to nmol/mL/1 × 10^6 cells.
The final chosen mechanistic model (model 1 with the comeasurement of pitavastatin and eltrombopag; Table 1 ) was based on the outcome of the structural identifiability analysis and goodness‐of‐fit statistics (Bayesian information criterion, and the weighted Bayesian information criterion, ^21 and the sum of the relative mean square root error (percentage RMSRE); see Supplemental Material ). Model 1 was described using a set of ODEs representing the following: the amount of pitavastatin (X = substrate (S) or pitavastatin (P)) and eltrombopag (X = inhibitor (I) or eltrombopag (E)) in the medium (X 1), the amount bound to transporter (X 2), and the intracellular amount (X 3). Passive rate constants for movement into and out of the cell (k f.X and k bX, respectively) as well as uptake transporter‐mediated rate constants for association to the transporter (k aX) and dissociation (k dX) and translocation (k tX) from the transporter into the medium and cell, respectively. Metabolism of pitavastatin in the cell was through an elimination rate constant (k e). The sets of ODEs for all the models (models 1–4; Table 1 ) tested for structural identifiability and used for parameter estimation are included in the Supplemental Material .
Parameter estimation was conducted within Monolix 2018 R2 (Lixoft, Antony, France) for each concentration and experiment as an individual data set, where to ensure positivity, a log‐normal distribution was assumed for each parameter, with a proportional residual error model for the observations. Because of the large number of parameters to be estimated in the combined pitavastatin and eltrombopag mechanistic model, the initial estimates for pitavastatin and eltrombopag each were obtained for the micro‐rate constant models (no macro‐rate constant estimates could be obtained for eltrombopag alone for transporter‐mediated uptake).
Hepatocyte Incubations. 0.4 mL of hepatocytes was diluted 1:1 with Leibovitz either containing DMSO blank (0.1 % for pitavastatin or 0.25 % for eltrombopag alone) or eltrombopag at 90 nmol/mL and pre-incubated at 1.5x10^6 cells/mL for 15 min at 37 °C in 7 mL glass scintillation vials (PerkinElmer, Vasby, Sweden) in a shaking water bath (Grant Instruments, Cambridge, UK). Pitavastatin was dissolved and serially diluted in DMSO to give 0.12, 0.4, 1.2, 4, 12 and 40 µmol/mL, and then diluted 400-fold into 37 °C Leibovitz L15 medium. […]

SMILES: O=C(O)C[C@H](O)C[C@H](O)/C=C/c1c(C2CC2)nc2ccccc2c1-c1ccc(F)cc1 [pitavastatin, pitavastatin calcium]
- DV (pitavastatin uptake into hepatocytes) (ID 11, AMT 10, TIME 25, DVID 1): 101.31
- DV (pitavastatin uptake into hepatocytes) (ID 11, AMT 10, TIME 45, DVID 1): 92.94
- DV (pitavastatin uptake into hepatocytes) (ID 12, AMT 10, TIME 15.25, DVID 1): 10.24
- DV (pitavastatin uptake into hepatocytes) (ID 12, AMT 10, TIME 15.5, DVID 1): 15.8
- DV (pitavastatin uptake into hepatocytes) (ID 12, AMT 10, TIME 16, DVID 1): 23.52
- DV (pitavastatin uptake into hepatocytes) (ID 12, AMT 10, TIME 17, DVID 1): 33.88
- DV (pitavastatin uptake into hepatocytes) (ID 12, AMT 10, TIME 20, DVID 1): 45.66
- DV (pitavastatin uptake into hepatocytes) (ID 12, AMT 10, TIME 25, DVID 1): 55.04
- DV (pitavastatin uptake into hepatocytes) (ID 12, AMT 10, TIME 45, DVID 1): 58.31
- DV (pitavastatin uptake into hepatocytes) (ID 13, AMT 30, TIME 15.25, DVID 1): 27.54
- DV (pitavastatin uptake into hepatocytes) (ID 13, AMT 30, TIME 15.5, DVID 1): 39.76
- DV (pitavastatin uptake into hepatocytes) (ID 13, AMT 30, TIME 16, DVID 1): 51.68
- DV (pitavastatin uptake into hepatocytes) (ID 13, AMT 30, TIME 17, DVID 1): 70.77
- DV (pitavastatin uptake into hepatocytes) (ID 13, AMT 30, TIME 20, DVID 1): 94.15
- DV (pitavastatin uptake into hepatocytes) (ID 13, AMT 30, TIME 25, DVID 1): 96.56
- DV (pitavastatin uptake into hepatocytes) (ID 13, AMT 30, TIME 45, DVID 1): 134.16
- DV (pitavastatin uptake into hepatocytes) (ID 14, AMT 30, TIME 15.25, DVID 1): 55.36
- DV (pitavastatin uptake into hepatocytes) (ID 14, AMT 30, TIME 15.5, DVID 1): 78.62
- DV (pitavastatin uptake into hepatocytes) (ID 14, AMT 30, TIME 16, DVID 1): 112.65
- DV (pitavastatin uptake into hepatocytes) (ID 14, AMT 30, TIME 17, DVID 1): 171.8
- DV (pitavastatin uptake into hepatocytes) (ID 14, AMT 30, TIME 20, DVID 1): 206.15
- DV (pitavastatin uptake into hepatocytes) (ID 14, AMT 30, TIME 25, DVID 1): 229.26
- DV (pitavastatin uptake into hepatocytes) (ID 14, AMT 30, TIME 45, DVID 1): 248.83
- DV (pitavastatin uptake into hepatocytes) (ID 15, AMT 30, TIME 15.25, DVID 1): 30.02
- DV (pitavastatin uptake into hepatocytes) (ID 15, AMT 30, TIME 15.5, DVID 1): 44.72
- DV (pitavastatin uptake into hepatocytes) (ID 15, AMT 30, TIME 16, DVID 1): 58.25
- DV (pitavastatin uptake into hepatocytes) (ID 15, AMT 30, TIME 17, DVID 1): 83.69
- DV (pitavastatin uptake into hepatocytes) (ID 15, AMT 30, TIME 20, DVID 1): 107.2
- DV (pitavastatin uptake into hepatocytes) (ID 15, AMT 30, TIME 25, DVID 1): 109.61
- DV (pitavastatin uptake into hepatocytes) (ID 15, AMT 30, TIME 45, DVID 1): 117.64
- DV (pitavastatin uptake into hepatocytes) (ID 16, AMT 100, TIME 15.25, DVID 1): 69.18
- DV (pitavastatin uptake into hepatocytes) (ID 16, AMT 100, TIME 15.5, DVID 1): 107.44
- DV (pitavastatin uptake into hepatocytes) (ID 16, AMT 100, TIME 16, DVID 1): 136
- DV (pitavastatin uptake into hepatocytes) (ID 16, AMT 100, TIME 17, DVID 1): 165.82
- DV (pitavastatin uptake into hepatocytes) (ID 16, AMT 100, TIME 20, DVID 1): 300.74
- DV (pitavastatin uptake into hepatocytes) (ID 16, AMT 100, TIME 25, DVID 1): 284.22
- DV (pitavastatin uptake into hepatocytes) (ID 16, AMT 100, TIME 45, DVID 1): 366.49
- DV (pitavastatin uptake into hepatocytes) (ID 18, AMT 100, TIME 15.25, DVID 1): 59.21
- DV (pitavastatin uptake into hepatocytes) (ID 18, AMT 100, TIME 15.5, DVID 1): 73.16
- DV (pitavastatin uptake into hepatocytes) (ID 18, AMT 100, TIME 16, DVID 1): 101.75
- DV (pitavastatin uptake into hepatocytes) (ID 18, AMT 100, TIME 17, DVID 1): 141.38
- DV (pitavastatin uptake into hepatocytes) (ID 18, AMT 100, TIME 20, DVID 1): 182.62
- DV (pitavastatin uptake into hepatocytes) (ID 18, AMT 100, TIME 25, DVID 1): 214.66
- DV (pitavastatin uptake into hepatocytes) (ID 18, AMT 100, TIME 45, DVID 1): 221.36
- DV (pitavastatin uptake into hepatocytes) (ID 19, AMT 0.3, TIME 15.25, DVID 2): 0.25
- DV (pitavastatin uptake into hepatocytes) (ID 19, AMT 0.3, TIME 15.5, DVID 2): 0.45
- DV (pitavastatin uptake into hepatocytes) (ID 19, AMT 0.3, TIME 16, DVID 2): 0.51
- DV (pitavastatin uptake into hepatocytes) (ID 19, AMT 0.3, TIME 17, DVID 2): 0.63
- DV (pitavastatin uptake into hepatocytes) (ID 19, AMT 0.3, TIME 20, DVID 2): 0.88
- DV (pitavastatin uptake into hepatocytes) (ID 19, AMT 0.3, TIME 25, DVID 2): 1.21
- DV (pitavastatin uptake into hepatocytes) (ID 19, AMT 0.3, TIME 45, DVID 2): 1.12
- DV (pitavastatin uptake into hepatocytes) (ID 20, AMT 0.3, TIME 15.25, DVID 2): 0.79
- DV (pitavastatin uptake into hepatocytes) (ID 20, AMT 0.3, TIME 15.5, DVID 2): 1.03
- DV (pitavastatin uptake into hepatocytes) (ID 20, AMT 0.3, TIME 16, DVID 2): 1.34
- DV (pitavastatin uptake into hepatocytes) (ID 20, AMT 0.3, TIME 17, DVID 2): 1.85
- DV (pitavastatin uptake into hepatocytes) (ID 20, AMT 0.3, TIME 20, DVID 2): 2.31
- DV (pitavastatin uptake into hepatocytes) (ID 20, AMT 0.3, TIME 25, DVID 2): 2.46
- DV (pitavastatin uptake into hepatocytes) (ID 20, AMT 0.3, TIME 45, DVID 2): 2.42
- DV (pitavastatin uptake into hepatocytes) (ID 21, AMT 0.3, TIME 15.25, DVID 2): 0.35
- DV (pitavastatin uptake into hepatocytes) (ID 21, AMT 0.3, TIME 15.5, DVID 2): 0.41
- DV (pitavastatin uptake into hepatocytes) (ID 21, AMT 0.3, TIME 16, DVID 2): 0.5
- DV (pitavastatin uptake into hepatocytes) (ID 21, AMT 0.3, TIME 17, DVID 2): 0.77
- DV (pitavastatin uptake into hepatocytes) (ID 21, AMT 0.3, TIME 20, DVID 2): 1.03
- DV (pitavastatin uptake into hepatocytes) (ID 21, AMT 0.3, TIME 25, DVID 2): 1.04
- DV (pitavastatin uptake into hepatocytes) (ID 21, AMT 0.3, TIME 45, DVID 2): 1.11
- DV (pitavastatin uptake into hepatocytes) (ID 22, AMT 1, TIME 15.25, DVID 2): 1.2
- DV (pitavastatin uptake into hepatocytes) (ID 22, AMT 1, TIME 15.5, DVID 2): 1.3
- DV (pitavastatin uptake into hepatocytes) (ID 22, AMT 1, TIME 16, DVID 2): 1.56
- DV (pitavastatin uptake into hepatocytes) (ID 22, AMT 1, TIME 17, DVID 2): 2.36
- DV (pitavastatin uptake into hepatocytes) (ID 22, AMT 1, TIME 20, DVID 2): 2.55
- DV (pitavastatin uptake into hepatocytes) (ID 22, AMT 1, TIME 25, DVID 2): 3.55
- DV (pitavastatin uptake into hepatocytes) (ID 22, AMT 1, TIME 45, DVID 2): 2.85
- DV (pitavastatin uptake into hepatocytes) (ID 23, AMT 1, TIME 15.25, DVID 2): 2.8
- DV (pitavastatin uptake into hepatocytes) (ID 23, AMT 1, TIME 15.5, DVID 2): 3.25
- DV (pitavastatin uptake into hepatocytes) (ID 23, AMT 1, TIME 16, DVID 2): 4.14
- DV (pitavastatin uptake into hepatocytes) (ID 23, AMT 1, TIME 17, DVID 2): 4.35
